The record followed here is US20210386729A1, “METHODS FOR TREATING LIVER DISORDERS USING FXR AGONISTS” (NOVARTIS AG, priority 2016, published 2021).

The nature of this data set: Safety and tolerability in healthy subjects. It counts as in vivo, human. From the text: Elevated ALT resolved to within normal levels within 14 days and without intervention.

The structures appear in SMILES notation.

For `O=C(O)c1cc(F)c2nc(N3C4CC[C@H]3CC(OCc3c(-c5ccccc5OC(F)(F)F)noc3C3CC3)C4)sc2c1` (some centres unmarked) [Compound A], the “overall safety and pharmacological activity” value (daily doses of 10 μg to 90 μg) was “safe and pharmacological active”. Further, the safety result (single dose studies up to 3000 μg) is reported as “No safety concerns were identified”.
